{"source": "patent US20090202995A1", "about": "“MOLECULAR CARDIOTOXICOLOGY MODELING” (priority 2005, published 2009)", "origin": "cited, not measured here", "key": {"[1]": {"test_system": "heart tissue", "settings": "known designation used to train the model, at the dose, time and route of Table 3"}, "[2]": {"test_system": "heart tissue", "settings": "known designation used to train the model, at the dose, time and route of Table 3", "remark": "listed apart in the source"}}, "data": [{"smiles": "CC(N)C(O)c1ccccc1", "note": "(centres unmarked) [Phenylpropanolamine]", "values": [{"measurement": "Andrenergic Agonist", "setting": "[1]", "result": 1}, {"measurement": "Myocardial Necrosis", "setting": "[2]", "result": 1}]}]}
